Experimental findings from PubChem BioAssay AID493131 (Broad Institute, 2011) are described below.

Protein sequences, listed by entry. Tags and fused reporters are not part of them.
UniProt P13346, whole entry: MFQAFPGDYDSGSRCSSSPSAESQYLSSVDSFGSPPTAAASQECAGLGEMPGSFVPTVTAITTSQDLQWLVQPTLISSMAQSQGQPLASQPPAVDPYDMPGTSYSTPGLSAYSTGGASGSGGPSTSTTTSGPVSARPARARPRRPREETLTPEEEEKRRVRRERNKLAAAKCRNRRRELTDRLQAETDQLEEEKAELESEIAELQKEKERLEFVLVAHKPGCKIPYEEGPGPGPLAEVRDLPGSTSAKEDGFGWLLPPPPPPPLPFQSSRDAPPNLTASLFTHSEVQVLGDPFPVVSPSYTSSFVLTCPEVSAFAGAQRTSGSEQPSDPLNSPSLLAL

This is a selection; strong and weak results do not stand in their true shares. Some salts or complexes appear as unconnected parts, following the source record. The source made the active and inactive calls.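 How the source made its calls: active means mean activation above about 17%, with every replicate also reaching it (limit read from the data, passing the limit was not always enough); inconclusive means only one of the two conditions met; inactive means the rest.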

For this assay, the target named is Protein FosB (Mus musculus) (UniProt P13346). Description: activators of delta FosB homodimer, primary screen, biochemical, fluorescence polarization, TAMRA-CDK5 oligo, single point (AID 493131).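 Further: fluorescence polarization rise as delta FosB binds a TAMRA Cdk5 AP-1 oligo.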 The note with it: purified delta FosB, at 25 µM, active compounds read high, percent of positive-control signal above neutral wells.
In the case of `CCCOc1ccc(NP(C)(=O)Oc2ccc(Cl)cc2)cc1` (stereo not given), the activation was inactive: -6.47%.

As for `CP(=O)(Nc1ccc(SC(F)(F)F)cc1)Oc1ccccc1` (stereo not given), the activation was inactive: -5.03%.

Take `COc1ccccc1OP(C)(=O)Nc1c(C)cccc1C` (stereo not given): the activation was inactive: -8.54%.

In the case of `CN1CCCCC1COC(=O)C1(O)c2ccccc2CCc2ccccc21` (stereo not given), the activation was inactive: -2.79%.

As to `CC1=C2N=C(C=C3N=C(C(C)=C4[N-][C@@](C)([C@@H]5N=C1[C@](C)(CCC(=O)NC[C@@H](C)OP(=O)([O-])O[C@H]1[C@@H](O)[C@@H](n6cnc7cc(C)c(C)cc76)O[C@@H]1CO)[C@H]5CC(N)=O)[C@@](C)(CC(N)=O)[C@@H]4CCC(N)=O)[C@@](C)(CC(N)=O)[C@@H]3CCC(N)=O)C(C)(C)[C@@H]2CCC(N)=O.[C-]#N.[Co+3]`, the activation is inactive: 1.05%.

In the case of `O=[N+]([O-])c1cc([N+](=O)[O-])c(Nc2nnnn2CCO)c([N+](=O)[O-])c1`, the activation was inactive: 2.39%.

Consider `CCOC(=O)C(CC)C1=NC(C)(C)Cc2ccccc21.O=[N+]([O-])c1cc([N+](=O)[O-])c(O)c([N+](=O)[O-])c1` (stereo not given), for which the activation is inactive: 1.37%.

For the compound `Cc1nc2ccc3ccccc3c2s1.O=[N+]([O-])c1cc([N+](=O)[O-])c(O)c([N+](=O)[O-])c1`, the activation is inactive: -2.96%.

With `O=[N+]([O-])c1cc([N+](=O)[O-])c(-c2cnn(-c3ccccc3)c2)c([N+](=O)[O-])c1`, the activation is inactive: -8.62%.

With `O=[N+]([O-])c1cc([N+](=O)[O-])c(-n2nnc3ccccc32)c([N+](=O)[O-])c1`, the activation is inactive: -3.64%.

As to `Cc1ccc(C)c(NP(C)(=O)Oc2ccccc2)c1` (stereo not given), the activation is inactive: -3.65%.

As to `Cc1cc(C)cc(OP(C)(=O)Nc2ccccn2)c1` (stereo not given), the activation was inactive: 5.81%.

On to `CP(=O)(Nc1cccc(Br)c1)Oc1ccccc1` (stereo not given), for which the activation was inactive: -3.72%.

For the compound `CCOC(=O)c1ccc(NP(C)(=O)Oc2cc(C)cc(C)c2)cc1` (stereo not given), the activation was inactive: -4.47%.

For the compound `Cc1cc(C)cc(OP(C)(=O)Nc2ccc(C)cc2C)c1` (stereo not given), the activation was inactive: -0.107%.

As to `COc1ccccc1OP(C)(=O)Nc1cccc(Br)c1` (stereo not given), the activation was inactive: -1.43%.

Consider `CC1=NCCc2c1[nH]c1ccccc21.O=[N+]([O-])c1cc([N+](=O)[O-])c(O)c([N+](=O)[O-])c1`, for which the activation was inactive: 5.3%.

For `O=C(O)c1cccc(Nc2c([N+](=O)[O-])cc([N+](=O)[O-])cc2[N+](=O)[O-])c1`, the activation was inactive: -0.652%.

Turning to `Cc1cc(C)cc(OP(C)(N)=O)c1` (stereo not given), the activation was inactive: 5.15%.

`COc1ccccc1OP(C)(=O)Nc1cc(Cl)ccc1C` (stereo not given): the activation is inactive: 3.14%.

In the case of `COc1ccc(OP(C)(=O)Nc2cccc(F)c2)cc1` (stereo not given), the activation is inactive: -2.46%.

As for `COc1ccccc1OP(C)(=O)Nc1ccc(C)cc1` (stereo not given), the activation was inactive: -3.58%.

In the case of `Cc1ccc(NP(C)(=O)Oc2ccccc2)c(C)c1` (stereo not given), the activation is inactive: 1.13%.

In the case of `CCOC(=O)c1ccc(NP(C)(=O)Oc2ccccc2)cc1` (stereo not given), the activation is inactive: -3.52%.

For the compound `O=[N+]([O-])c1ccc2c(c1)C=Nc1ccccc1O2`, the activation was inactive: 0.816%.

As for `CC(C)(C)c1ccc(OP(C)(=O)Nc2ccc(SC(F)(F)F)cc2)cc1` (stereo not given), the activation is inactive: -3.02%.

On to `Cc1cccc(C)c1OP(C)(N)=O` (stereo not given), for which the activation was inactive: 5.37%.

For `O=[N+]([O-])c1cc([N+](=O)[O-])c(Nc2cccnc2)c([N+](=O)[O-])c1`, the activation was inactive: -0.165%.

For `CCN(CC)CCCOC(=O)C(O)(c1ccccc1)c1ccccc1`, the activation is inactive: -1.99%.

As to `CP(=O)(Nc1ccccn1)Oc1ccc(Cl)cc1` (stereo not given), the activation was inactive: 2.21%.

Turning to `CCOC(=O)c1ccc(NP(C)(=O)Oc2ccc(OC)cc2)cc1` (stereo not given), the activation is inactive: -13.8%.

Take `CCOP(C)(=S)SCC(=O)NC(C)C(=O)O` (stereo not given): the activation was inactive: -4.39%.

As to `CP(=O)(NC(=O)Nc1ccccc1)Oc1ccccc1` (stereo not given), the activation was inactive: 4.84%.

Take `CCc1ccc(OP(C)(=O)N2CCN(c3ccc([N+](=O)[O-])cc3)CC2)cc1` (stereo not given): the activation was inactive: -11.9%.

As for `Cc1cc(C)cc(OP(C)(=O)Nc2ccc(SC(F)(F)F)cc2)c1` (stereo not given), the activation is inactive: 1.54%.

`Cc1cccc(C)c1OP(C)(=O)Nc1ccc(SC(F)(F)F)cc1` (stereo not given): the activation was inactive: -0.134%.

With `CP(=O)(Oc1ccccc1)OC(c1ccccc1)C(F)(F)F` (stereo not given), the activation was inactive: -5.05%.

Regarding `CP(=O)(Nc1ccccc1Br)Oc1ccccc1` (stereo not given), the activation is inactive: -0.981%.

On to `COc1ccccc1OP(C)(=O)Nc1ccccc1` (stereo not given), for which the activation is inactive: -0.514%.

In the case of `CP(=S)(Nn1cnnc1)Oc1ccccc1` (stereo not given), the activation is inactive: -2.5%.

Consider `CCOC(=O)c1ccc(NP(C)(=O)Oc2ccc(Cl)cc2)cc1` (stereo not given), for which the activation is inactive: -7.08%.

Consider `CP(=O)(OC12CC3CC(CC(C3)C1)C2)OC12CC3CC(CC(C3)C1)C2`, for which the activation is inactive: -7.01%.

On to `CN(C)C(=O)c1c([N+](=O)[O-])cc([N+](=O)[O-])cc1[N+](=O)[O-]`, for which the activation is inactive: -1.07%.

On to `COc1ccccc1OP(C)(=O)Nc1ccccc1Br` (stereo not given), for which the activation was inactive: -17.1%.

As for `CC(C)(C)c1ccc(OP(C)(=O)O)cc1`, the activation is inactive: -17.6%.

Turning to `CP(=O)(Nc1ccc(Cl)cc1)Oc1ccc(F)cc1` (stereo not given), the activation was inactive: 0.979%.

`COc1ccccc1OP(C)(=O)Nc1c(C)n(C)n(-c2ccccc2)c1=O` (stereo not given): the activation is inactive: -5.32%.

`O=C(OCCCN1CCCC1)C(O)(c1ccccc1)C1CCCCC1` (stereo not given): the activation is inactive: -4.73%.

For `CP(=O)(Oc1ccccc1)N1CCOC1=O` (stereo not given), the activation is inactive: -1.56%.

Take `CCc1ccc(OP(C)(=O)Nc2cccnc2)cc1` (stereo not given): the activation is inactive: -7.58%.

Regarding `CCN(CC)CC(O)COC(=O)C(O)(c1ccccc1)C1CCCCC1` (stereo not given), the activation is inactive: 0.692%.

For the compound `COc1ccc(OP(C)(=O)Nc2ccc(Br)cc2)cc1` (stereo not given), the activation is inactive: -0.834%.

With `CP(=O)(Nc1ccccn1)Oc1ccccc1` (stereo not given), the activation is inactive: -3.08%.

Regarding `COc1ccccc1OP(C)(=O)Nc1ccc(C)cc1C` (stereo not given), the activation is inactive: 5.03%.

With `CCc1ccc(OP(C)(=O)O)cc1`, the activation was inactive: -0.12%.

As to `Cc1c(NP(C)(=O)Oc2ccc(C(C)C)cc2)c(=O)n(-c2ccccc2)n1C` (stereo not given), the activation is inactive: -8.46%.

For the compound `O=[N+]([O-])c1cc([N+](=O)[O-])c(Nc2ccccn2)c([N+](=O)[O-])c1`, the activation is inactive: 4.4%.

Take `COc1ccc(OP(C)(=O)Nc2ccccn2)cc1` (stereo not given): the activation was inactive: -0.23%.

Regarding `CN(C)CCOC(=O)C(O)(c1ccccc1)C1CCCC1` (stereo not given), the activation is inactive: -4.35%.

For the compound `COc1ccccc1OP(C)(=O)Nc1ccc(Br)cc1` (stereo not given), the activation was inactive: -3.83%.

`CP(=O)(Nc1ccc(Cl)cc1Cl)Oc1ccccc1` (stereo not given): the activation is inactive: 2.08%.

On to `CCCCCCCCCCCCCCCC1C[N+](C)(C)CCOP(C)(=O)O1` (stereo not given), for which the activation is inactive: -115%.

On to `CP(=O)(OCCOc1ccccc1)OCCOc1ccccc1`, for which the activation was inactive: 4.2%.

For `COc1ccccc1OP(C)(=O)Nc1ccc(C)c(C)c1` (stereo not given), the activation is inactive: 0.942%.

Regarding `COc1ccc(OP(C)(=O)Nc2ccccc2Br)cc1` (stereo not given), the activation is inactive: 2.02%.

With `O=C1C(O)=C([N+](=O)[O-])C(=O)C(O)=C1[N+](=O)[O-]`, the activation was inactive: 3.09%.

`Cc1cc(C)cc(OP(C)(=O)Nc2cccc(C(F)(F)F)c2)c1` (stereo not given): the activation is inactive: -3.97%.

As to `CP(=O)(Nc1ccccc1)Oc1ccc(F)cc1` (stereo not given), the activation was inactive: 6.5%.

In the case of `O=[N+]([O-])c1cc([N+](=O)[O-])c(OC2CCCCC2O)c([N+](=O)[O-])c1` (stereo not given), the activation is inactive: -9.85%.

Consider `CCCCCOc1ccc(NP(C)(=O)Oc2ccc(Cl)cc2Cl)cc1` (stereo not given), for which the activation was inactive: -13.4%.

As for `Cc1c([N+](=O)[O-])cc([N+](=O)[O-])c(Br)c1[N+](=O)[O-]`, the activation was inactive: 3.11%.

Regarding `CCN(CC)CCCOC(=O)C(O)(c1ccccc1)C1CCCCC1` (stereo not given), the activation was inactive: -13.8%.

For the compound `CCOC(=O)c1ccc(NP(C)(=O)Oc2ccc(F)cc2)cc1` (stereo not given), the activation was inactive: -0.689%.

Take `COc1ccc(OP(C)(=O)Nc2ccc(SC(F)(F)F)cc2)cc1` (stereo not given): the activation was inactive: -10.8%.

Consider `COc1ccc2c(c1O)-c1c(O)c(OC)cc3c1[C@H](C2)[N+](C)(C)CC3.O=[N+]([O-])c1cc([N+](=O)[O-])c([O-])c([N+](=O)[O-])c1[O-]`, for which the activation is inactive: -3.14%.

On to `O=C(OC1CN2CCC1CC2)c1ccc([N+](=O)[O-])cc1` (stereo not given), for which the activation was inactive: -4.72%.

`O=C(OCCN1CCN(CCOCc2ccccc2)CC1)C(O)(c1ccccc1)c1ccccc1`: the activation was inactive: -3.99%.

Regarding `CP(=O)(Nc1ccccc1F)Oc1ccccc1` (stereo not given), the activation is inactive: 1.57%.

As for `CC(C)c1ccc(OP(C)(=O)Nc2ccc(SC(F)(F)F)cc2)cc1` (stereo not given), the activation was inactive: -9.67%.

`Cc1ccccc1NP(C)(=O)Nc1ccccc1C`: the activation was inactive: 2.69%.

For `CP(=O)(Nc1ccc2c(c1)OCCO2)Oc1ccccc1` (stereo not given), the activation was inactive: -5.4%.

Consider `CCOP(C)(=S)SCC(=O)NC(C)(CC)C(=O)O` (stereo not given), for which the activation was inactive: -5.51%.

On to `CP(=O)(Nc1ccc(SC(F)(F)F)cc1)Oc1ccc(F)cc1` (stereo not given), for which the activation is inactive: -4.45%.

On to `Cc1c(C(c2ccc3c(c2)OCO3)c2c(C)n(C)n(-c3ccccc3)c2=O)c(=O)n(-c2ccccc2)n1C.O=[N+]([O-])c1cc([N+](=O)[O-])c(O)c([N+](=O)[O-])c1`, for which the activation is inactive: 3.34%.

Consider `O=[N+]([O-])c1ccc(OP2(=O)COCCO2)cc1` (stereo not given), for which the activation was inactive: -2.22%.

In the case of `Cc1cc(-c2cccc3ccccc23)c(C)cn1.O=[N+]([O-])c1cc([N+](=O)[O-])c(O)c([N+](=O)[O-])c1`, the activation is inactive: -8.54%.

`O=[N+]([O-])c1cc([N+](=O)[O-])c(NCC2CCS(=O)(=O)C2)c([N+](=O)[O-])c1` (stereo not given): the activation was inactive: 2.49%.

Take `CN(C)CCOC(=O)C(O)(c1ccccc1)C1CCCCC1` (stereo not given): the activation was inactive: -0.288%.

As for `COc1ccc(NP(C)(=O)Oc2ccccc2OC)cc1` (stereo not given), the activation is inactive: -3.53%.

As to `COc1ccc(OP(C)(=O)Nc2cccc(Br)c2)cc1` (stereo not given), the activation was inactive: -2.54%.
